Data published in US8900194B2, “Microneedle devices and microneedle delivery apparatus” (3M Innovative Properties Company, priority 2002, dated 2014).

Details: 0.100 gm/ml FITC-dextran in water
Description: Human cadaver skin was soaked for approximately one hour in 0.025M phosphate buffer solution (PBS) before being cut to size to fit 5 cm^2 Franz cells modified to sit over individual stirrers within an enclosed, temperature-controlled box. The temperature was maintained at 32° C. during the permeation experiment. The receiver cell solution was 0.025M PBS. Impedance measurements were made both before and following microneedle application. Skin samples with a resistivity lower than 10,000 Ω·cm^2 were discarded.
The microneedles were attached to the piston of an impactor of the general design shown in FIG. 7 to 10 and applied to the cadaver skin. The piston velocity was 8 m/sec and the piston mass was 7 gm.
All cells were kept at 32° C. for the duration of the study.
The aspect ratio of the microneedles was approximately 3:1.
Average cumulative flux was determined at 2 hours after application of the solution.

fluorescine isothiocyanate (FITC)-dextran [FITC-Dextran]
FITC-Dextran Cumulative Flux (6 hrs, treated skin (Example 4 microneedles), average of 3): 66.5 μg/cm^2 | FITC-Dextran Cumulative Flux (6 hrs, untreated skin (no microneedles)): 6.4 μg/cm^2 | FITC-Dextran Cumulative Flux (24 hrs, treated skin (Example 4 microneedles), average of 3): 387 μg/cm^2 | FITC-Dextran Cumulative Flux (24 hrs, untreated skin (no microneedles)): 2.2 μg/cm^2 | FITC-Dextran Cumulative Flux (48 hrs, treated skin (Example 4 microneedles), average of 3): 823 μg/cm^2 | FITC-Dextran Cumulative Flux (48 hrs, untreated skin (no microneedles)): 0.8 μg/cm^2 | FITC-Dextran Cumulative Flux (72 hrs, treated skin (Example 4 microneedles), average of 3): 1271 μg/cm^2 | FITC-Dextran Cumulative Flux (72 hrs, untreated skin (no microneedles)): 5.0 μg/cm^2

Read-outs that look alike come from different tables or passages of the source.
